{"sequences": {"note": "Amino acid sequences for entries named in this document (tags omitted).", "UniProt Q923Y8, whole entry": "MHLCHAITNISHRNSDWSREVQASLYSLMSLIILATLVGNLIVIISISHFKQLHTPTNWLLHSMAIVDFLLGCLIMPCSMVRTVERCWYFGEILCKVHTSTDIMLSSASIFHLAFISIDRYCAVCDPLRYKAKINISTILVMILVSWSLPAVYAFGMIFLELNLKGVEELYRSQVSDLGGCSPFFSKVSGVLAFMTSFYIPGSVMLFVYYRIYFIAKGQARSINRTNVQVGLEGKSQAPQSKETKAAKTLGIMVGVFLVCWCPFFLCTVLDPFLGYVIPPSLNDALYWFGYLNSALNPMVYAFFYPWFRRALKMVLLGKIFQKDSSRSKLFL", "UniProt Q923Y9, whole entry": "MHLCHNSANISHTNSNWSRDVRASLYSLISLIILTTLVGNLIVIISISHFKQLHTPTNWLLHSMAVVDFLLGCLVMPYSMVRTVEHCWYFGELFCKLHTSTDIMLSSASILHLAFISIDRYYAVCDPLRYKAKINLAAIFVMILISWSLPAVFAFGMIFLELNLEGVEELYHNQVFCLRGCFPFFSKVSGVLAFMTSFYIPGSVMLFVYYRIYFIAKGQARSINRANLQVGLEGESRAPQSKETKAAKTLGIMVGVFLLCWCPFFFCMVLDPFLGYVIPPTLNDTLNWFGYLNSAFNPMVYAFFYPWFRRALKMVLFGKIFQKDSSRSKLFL"}, "source": "patent US9029370B2", "about": "“Substituted benzamide derivatives” (Hoffmann-La Roche Inc., priority 2011, dated 2015)", "data": [{"target": "mouse TAAR1 (Mus musculus (Mouse), UniProt Q923Y8)", "test": "Radioligand binding assay on mouse TAAR1", "details": "mouse TAAR1, HEK-293 membranes; first value of the pair (before the slash); read-out: Ki (μM) mouse/rat", "procedure": "(§1) For the construction of expression plasmids the coding sequences of human, rat and mouse TAAR 1 were amplified from genomic DNA essentially as described by Lindemann et al.. The Expand High Fidelity PCR System (Roche Diagnostics) was used with 1.5 mM Mg^2+ and purified PCR products were cloned into pCR2.1-TOPO cloning vector (Invitrogen) following the instructions of the manufacturer. PCR products were subcloned into the pIRESneo2 vector (BD Clontech, Palo Alto, Calif.), and expression vectors were sequence verified before introduction in cell lines.\n(§2) HEK293 cells (ATCC # CRL-1573) were cultured essentially as described by Lindemann et al. (2005). For the generation of stably transfected cell lines HEK293 cells were transfected with the pIRESneo2 expression plasmids containing the TAAR coding sequences (described above) with Lipofectamine 2000 (Invitrogen) according to the instructions of the manufacturer, and 24 hrs post transfection the culture medium was supplemented with 1 mg/ml G418 (Sigma, Buchs, Switzerland). After a culture period of about 10 d clones were isolated, expanded and tested for responsiveness to trace amines (all compounds purchased from Sigma) with the cAMP Biotrak Enzyme immunoassay (EIA) System (Amersham) following the non-acetylation EIA procedure provided by the manufacturer.\nRadioligand Binding Assay on Mouse TAAR1\n(§3) Membrane Preparation and Radioligand Binding.\n(§4) HEK-293 cells stably expressing mouse TAAR1 were maintained at 37° C. and 5% CO2 in DMEM high glucose medium, containing fetal calf serum (10%, heat inactivated for 30 min at 56° C.), penicillin/streptomycin (1%), and 375 μg/ml geneticin (Gibco). Cells were released from culture flasks using trypsin/EDTA, harvested, washed twice with ice-cold PBS (without Ca^2+ and Mg^2+), pelleted at 1′000 rpm for 5 min at 4° C., frozen and stored at −80° C. Frozen pellets were suspended in 20 ml HEPES-NaOH (20 mM, pH 7.4) containing 10 mM EDTA and homogenized with a Polytron (PT 6000, Kinematica) at 14′000 rpm for 20 s. The homogenate was centrifuged at 48′000×g for 30 min at 4° C. Subsequently, the supernatant was removed and discarded, and the pellet resuspended in 20 ml HEPES-NaOH (20 mM, pH 7.4) containing 0.1 mM EDTA using the Polytron (20 s at 14′000 rpm). This procedure was repeated and the final pellet resuspended in HEPES-NaOH containing 0.1 mM EDTA and homogenized using the Polytron. Typically, aliquots of 2 ml membrane portions were stored at −80° C. With each new membrane batch the dissociation constant (Kd) was determined via a saturation curve. The TAAR1 radioligand ^3[H]-(S)-4-[(ethyl-phenyl-amino)-methyl]-4,5-dihydro-oxazol-2-ylamine (described in WO 2008/098857) was used at a concentration equal to the calculated Kd value, that was usually around 0.7 nM, resulting in the binding of approximately 0.5% of the radioligand and a specific binding representing approximately 70% of the total binding. Nonspecific binding was defined as the amount of ^3[H]-(S)-4-[(ethyl-phenyl-amino)-methyl]-4,5-dihydro-oxazol-2-ylamine bound in the presence of 10 μM unlabeled ligand. All compounds were tested at a broad range of concentrations (10 pM to 10 μM) in duplicates. […] The 96 deep well plates were incubated for 1 hr at 4° C. Incubations were terminated by rapid filtration through Unifilter-96 plates (Packard Instrument Company) and glass filters GF/C (Perkin Elmer) presoaked for 1 hr in polyethylenimine (0.3%) and washed 3 times with 1 ml of cold binding buffer. After addition of 45 μl of Microscint 40 (PerkinElmer) the Unifilter-96 plate was sealed and after 1 hr the ratioactivity counted using a TopCount Microplate Scintillation Counter (Packard Instrument Company).", "units": {"Ki": "µM"}, "values": [{"smiles": "O=C(Nc1ccc([C@H]2CNCCO2)cc1Cl)c1cnn(-c2ccc(F)cc2)c1", "note": "[Example 31, (S)—N-(2-Chloro-4-(morpholin-2-yl)phenyl)-1-(4-fluorophenyl)-1H-pyrazole-4-carboxamide]", "Ki": 0.0017}, {"smiles": "O=C(Nc1ccc([C@@H]2CNCCO2)cc1Cl)c1cnn(-c2ccc(F)cc2)c1", "note": "[Example 32, (R)—N-(2-Chloro-4-(morpholin-2-yl)phenyl)-1-(4-fluorophenyl)-1H-pyrazole-4-carboxamide]", "Ki": 0.0029}, {"smiles": "O=C(Nc1ccc(Cl)nc1)Nc1ccc([C@H]2CNCCO2)cc1Cl", "note": "[Example 19, (S)-1-(2-Chloro-4-morpholin-2-yl-phenyl)-3-(6-chloro-pyridin-3-yl)-urea]", "Ki": 0.0014}, {"smiles": "O=C(Nc1ccc(Cl)nc1)Nc1ccc([C@H]2CNCCO2)cc1Br", "note": "[Example 68, 1-((S)-2-Bromo-4-morpholin-2-yl-phenyl)-3-(6-chloro-pyridin-3-yl)-urea]", "Ki": 0.001}, {"smiles": "O=C(Nc1ccc(Cl)nc1)Nc1ccc(C2CNCCO2)cc1Cl", "note": "(racemic) [Example 14, (RS)-1-(2-Chloro-4-morpholin-2-yl-phenyl)-3-(6-chloro-pyridin-3-yl)-urea]", "Ki": 0.0016}, {"smiles": "N#Cc1cccc(NC(=O)Nc2ccc(C3CNCCO3)cc2C#N)c1", "note": "(racemic) [Example 33, (RS)-1-(2-Cyano-4-morpholin-2-yl-phenyl)-3-(3-cyano-phenyl)-urea]", "Ki": 2.08}, {"smiles": "N#Cc1cccc(NC(=O)Nc2ccc([C@@H]3CNCCO3)cc2Cl)c1", "note": "[Example 7, (R)-1-(2-Chloro-4-(morpholin-2-yl)phenyl)-3-(3-cyanophenyl)urea]", "Ki": 0.0015}, {"smiles": "O=C(Nc1ccc(Cl)nc1)Nc1ccc([C@@H]2CNCCO2)cc1Cl", "note": "[Example 20, (R)-1-(2-Chloro-4-morpholin-2-yl-phenyl)-3-(6-chloro-pyridin-3-yl)-urea]", "Ki": 0.0012}]}, {"target": "rat TAAR1 (Rattus norvegicus (Rat), UniProt Q923Y9)", "test": "Radioligand binding assay on rat TAAR1", "details": "rat TAAR1, HEK-293 membranes; second value of the pair (line below); read-out: Ki (μM) mouse/rat", "procedure": "as §1, §2\nRadioligand Binding Assay on Rat TAAR1\nas §3\nas §4, with “rat” for “mouse”, “The TAAR1 radioligand ^3[H]-(S)-4-[(ethyl-phenyl-amino)-methyl]-4,5-dihydro-oxazol-2-ylamine (described in WO 2008/098857) was used at a concentration equal to the calculated Kd value, that was usually around 0.7 nM, resulting in the binding of approximately 0.5% of the radioligand and a specific binding representing approximately 70% of the total binding.” left out", "units": {"Ki": "µM"}, "values": [{"smiles": "N#Cc1cc(C2CNCCO2)ccc1NC(=O)c1ccn(-c2ccc(F)cc2)n1", "note": "(racemic) [Example 28, (RS)—N-(2-Cyano-4-(morpholin-2-yl)phenyl)-1-(4-fluorophenyl)-1H-pyrazole-3-carboxamide]", "Ki": 0.0059}, {"smiles": "O=C(Nc1ccc(Cl)nc1)Nc1ccc([C@H]2CNCCO2)cc1Br", "note": "[Example 68, 1-((S)-2-Bromo-4-morpholin-2-yl-phenyl)-3-(6-chloro-pyridin-3-yl)-urea]", "Ki": 0.0081}, {"smiles": "O=C(Nc1ccc(Cl)nc1)Nc1ccc([C@@H]2CNCCO2)cc1Br", "note": "[Example 67, 1-((R)-2-Bromo-4-morpholin-2-yl-phenyl)-3-(6-chloro-pyridin-3-yl)-urea]", "Ki": 0.0038}, {"smiles": "N#Cc1cccc(NC(=O)Nc2ccc([C@H]3CNCCO3)cc2Cl)c1", "note": "[Example 6, (S)-1-(2-Chloro-4-(morpholin-2-yl)phenyl)-3-(3-cyanophenyl)urea]", "Ki": 0.0017}, {"smiles": "N#Cc1cccc(NC(=O)Nc2ccc([C@@H]3CNCCO3)cc2Cl)c1", "note": "[Example 7, (R)-1-(2-Chloro-4-(morpholin-2-yl)phenyl)-3-(3-cyanophenyl)urea]", "Ki": 0.0016}, {"smiles": "O=C(Nc1ccc(C2CNCCO2)cc1Cl)c1cnn(-c2ccc(F)cc2)c1", "note": "(racemic) [Example 18, (RS)—N-(2-Chloro-4-(morpholin-2-yl)phenyl)-1-(4-fluorophenyl)-1H-pyrazole-4-carboxamide]", "Ki": 0.0033}]}]}
